Test results reported in patent US8697911B2, “Rho kinase inhibitors” (Boehringer Ingelheim International GmbH, priority 2010, dated 2014).

Chains of the proteins cited; added tags and fusions are not shown. Residues count along the entry.
UniProt O75116, 1-543: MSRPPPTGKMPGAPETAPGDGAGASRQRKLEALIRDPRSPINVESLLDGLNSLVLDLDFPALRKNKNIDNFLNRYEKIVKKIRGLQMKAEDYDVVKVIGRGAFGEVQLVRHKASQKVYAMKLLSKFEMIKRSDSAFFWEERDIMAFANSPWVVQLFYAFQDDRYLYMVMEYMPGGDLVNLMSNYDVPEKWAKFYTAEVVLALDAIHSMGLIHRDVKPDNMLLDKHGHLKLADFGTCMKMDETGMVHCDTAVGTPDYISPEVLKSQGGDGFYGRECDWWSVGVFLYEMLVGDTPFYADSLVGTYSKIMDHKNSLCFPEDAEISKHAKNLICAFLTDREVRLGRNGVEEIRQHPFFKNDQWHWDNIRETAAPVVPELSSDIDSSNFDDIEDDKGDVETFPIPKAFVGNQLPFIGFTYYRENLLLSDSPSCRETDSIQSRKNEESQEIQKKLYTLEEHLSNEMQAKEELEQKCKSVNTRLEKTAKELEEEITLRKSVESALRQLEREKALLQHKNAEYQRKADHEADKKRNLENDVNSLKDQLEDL

What was measured:
ROCKII (1-543) [1] = target: T1, ROCKII (1-543) (Homo sapiens (Human), UniProt O75116); assay: Luciferin-Luciferase Assay (Assay 1); assay type: biochemical; settings: luciferin-luciferase residual ATP; 750 nM ATP, 7.5 nM kinase
Procedure: 1. Luciferin-Luciferase Assay
The activity of ROCKII (1-543) kinase is measured utilizing Cambrex PKLight ATP Detection Reagent, a homogeneous assay technology using luciferin-luciferase to quantify residual ATP. The assay is performed in 384-well low-volume, white, non-binding surface microtiter plates (Corning). The assay buffer is 25 mM HEPES, pH 7.5, 10 mM MgCl2, 50 mM KCl, 0.2% BSA, 0.01% CHAPS, 100 μM Na3VO4 and 0.5 mM DTT. Test compounds, dissolved in neat DMSO at 500 μg/mL, are serially diluted for dose response for a final starting concentration of 3 μg/mL in 1% DMSO of assay buffer. ROCKII (1-543) (62,408 Da) is diluted in assay buffer to a final concentration of 7.5 nM in a total volume of 15 μL. Positive controls are reaction mixtures containing no test compound; negative controls (blanks) are reaction mixtures containing no kinase. After 15 minutes of pre-incubation of the test compounds with the kinase, a mixture of ATP and peptide substrate (AKRRRLSSLRA) in assay buffer is added to each well for a final concentration of 750 nM ATP and 500 nM peptide, respectively. After 90 minutes of incubation of the kinase reaction at 28° C. temperature, 10 μL of PKLight ATP Detection Reagent (warmed to room temperature previously) is added to each well. The assay plate is incubated at room temperature for additional 15 minutes and then read on an Analyst in luminescence mode. Dose-response experiments for each of the test compounds are conducted in quadruplet. IC50 values of test compounds represent 50% response of the positive control from the dose-response curve.

ROCKII (1-543) [2] = target: T1, ROCKII (1-543); assay: IMAP Assay (Assay 2); assay type: biochemical; settings: IMAP fluorescence polarization; 100 μM ATP, 1 nM kinase
Procedure: This assay is performed using FAM S6 substrate peptide (Catalogue #R7184) and IMAP FP Screening Express Kit detection reagents from Molecular Devices (Sunnyvale, Calif.) in IMAP kinase reaction buffer (Tris-HCl, pH 7.2, 10 mM MgCl2, 0.05% NaN3, 0.1% phosphate-free BSA) containing 1 mM DTT. Test compounds dissolved in neat DMSO at 0.3 mg/mL are serially diluted 1 to 3 for concentration response in 100% DMSO. The DMSO serial dilutions are further diluted 33.33-fold in kinase reaction buffer, and 10 μL of this buffer dilution is transferred to Corning black 96-well half area NBS plates for a final top concentration of 3 μg/mL in 1% DMSO. 10 μL aliquot of 3 nM ROCKII (1-543) diluted in kinase reaction buffer is added to each assay well for a final concentration of 1 nM kinase. […] The kinase reaction is stopped by addition of 60 μL IMAP progressive binding reagent (Catalog #R7284) diluted 400-fold in 1× Binding buffer A. After 30 min of incubation at room temperature, the plates are read for fluorescence polarization on Analyst Plate Reader using Ex 485 nm, Em 530 nm, and FL 505 dichroic minor. […]
Where A, B, C, and D are fitted parameters (parameter B is fixed at zero POC), and x and y are the independent and dependent variables, respectively. The IC50 is determined as the inflection point parameter, C.

IC50 (ROCKII (1-543) [1])	IC50 (ROCKII (1-543) [2])	SMILES
6.9 nM		CN1CCc2ccc(NC(=O)c3cccc(CNC(=O)N4CCc5c(C#N)cccc54)c3)cc2C1 [compound 201, 4-cyano-2,3-dihydro-indole-1-carboxylic acid 3-(2-methyl-1,2,3,4-tetrahydro-isoquinolin-7-ylcarbamoyl)-benzylamide]
1.8 nM		N[C@@H]1CCc2nc(NC(=O)c3cccc(CNC(=O)c4csc(-c5ccncc5)n4)c3)sc2C1 [compound 32]
11.9 nM		CN1CCc2ccc(NC(=O)c3cccc(CNC(=O)c4nc(-c5cccnc5)cs4)c3)cc2C1 [compound 202]
1.1 nM	1.1 nM	N[C@H]1CCc2nc(NC(=O)c3cccc(CNC(=O)c4csc(-c5ccncc5)n4)c3)sc2C1 [compound 34]
